Earlier results, collected in patent US20120128665A1, “PRESELECTION OF SUBJECTS FOR THERAPEUTIC TREATMENT BASED ON HYPOXIC STATUS” (SYNTA PHARMACEUTICALS CORP., priority 2010, published 2012).

Sequences of proteins named here, by UniProt entry; tags and fusion partners are left off. Residues count along the entry.
UniProt P35968, 20-1356, species assumed: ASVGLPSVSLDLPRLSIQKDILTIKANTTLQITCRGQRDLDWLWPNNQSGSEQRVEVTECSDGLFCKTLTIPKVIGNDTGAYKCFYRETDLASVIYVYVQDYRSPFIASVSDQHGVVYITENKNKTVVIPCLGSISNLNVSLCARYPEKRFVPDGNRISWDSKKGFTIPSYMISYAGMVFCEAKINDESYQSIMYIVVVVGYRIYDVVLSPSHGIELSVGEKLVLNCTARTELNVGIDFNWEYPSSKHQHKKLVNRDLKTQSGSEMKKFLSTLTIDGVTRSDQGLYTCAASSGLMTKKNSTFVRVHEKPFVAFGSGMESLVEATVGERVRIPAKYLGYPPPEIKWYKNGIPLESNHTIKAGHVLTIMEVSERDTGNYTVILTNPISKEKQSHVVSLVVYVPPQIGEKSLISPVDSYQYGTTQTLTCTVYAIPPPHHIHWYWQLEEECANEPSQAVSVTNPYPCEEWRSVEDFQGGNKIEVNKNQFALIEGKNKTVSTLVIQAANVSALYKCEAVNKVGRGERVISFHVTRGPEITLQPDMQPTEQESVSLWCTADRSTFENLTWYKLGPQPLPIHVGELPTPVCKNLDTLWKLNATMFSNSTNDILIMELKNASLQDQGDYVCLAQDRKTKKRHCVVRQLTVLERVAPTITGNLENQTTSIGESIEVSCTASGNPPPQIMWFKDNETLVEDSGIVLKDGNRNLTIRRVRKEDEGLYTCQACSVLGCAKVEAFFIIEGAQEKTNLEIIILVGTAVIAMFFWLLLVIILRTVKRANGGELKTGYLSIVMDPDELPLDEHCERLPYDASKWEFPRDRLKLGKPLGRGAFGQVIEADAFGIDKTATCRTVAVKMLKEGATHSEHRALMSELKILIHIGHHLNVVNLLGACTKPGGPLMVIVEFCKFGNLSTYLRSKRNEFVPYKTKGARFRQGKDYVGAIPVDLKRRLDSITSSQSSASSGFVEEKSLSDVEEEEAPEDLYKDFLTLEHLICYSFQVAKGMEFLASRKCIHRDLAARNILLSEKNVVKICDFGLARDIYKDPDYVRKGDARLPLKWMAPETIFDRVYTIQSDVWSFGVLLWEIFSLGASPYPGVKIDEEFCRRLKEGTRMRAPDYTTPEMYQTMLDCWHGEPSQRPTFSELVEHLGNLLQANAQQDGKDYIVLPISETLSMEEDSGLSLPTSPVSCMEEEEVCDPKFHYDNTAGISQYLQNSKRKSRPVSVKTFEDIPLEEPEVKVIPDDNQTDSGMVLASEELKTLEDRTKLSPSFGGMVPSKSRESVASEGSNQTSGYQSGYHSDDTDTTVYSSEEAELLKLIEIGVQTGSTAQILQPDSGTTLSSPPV
UniProt P10721, 26-976, species assumed: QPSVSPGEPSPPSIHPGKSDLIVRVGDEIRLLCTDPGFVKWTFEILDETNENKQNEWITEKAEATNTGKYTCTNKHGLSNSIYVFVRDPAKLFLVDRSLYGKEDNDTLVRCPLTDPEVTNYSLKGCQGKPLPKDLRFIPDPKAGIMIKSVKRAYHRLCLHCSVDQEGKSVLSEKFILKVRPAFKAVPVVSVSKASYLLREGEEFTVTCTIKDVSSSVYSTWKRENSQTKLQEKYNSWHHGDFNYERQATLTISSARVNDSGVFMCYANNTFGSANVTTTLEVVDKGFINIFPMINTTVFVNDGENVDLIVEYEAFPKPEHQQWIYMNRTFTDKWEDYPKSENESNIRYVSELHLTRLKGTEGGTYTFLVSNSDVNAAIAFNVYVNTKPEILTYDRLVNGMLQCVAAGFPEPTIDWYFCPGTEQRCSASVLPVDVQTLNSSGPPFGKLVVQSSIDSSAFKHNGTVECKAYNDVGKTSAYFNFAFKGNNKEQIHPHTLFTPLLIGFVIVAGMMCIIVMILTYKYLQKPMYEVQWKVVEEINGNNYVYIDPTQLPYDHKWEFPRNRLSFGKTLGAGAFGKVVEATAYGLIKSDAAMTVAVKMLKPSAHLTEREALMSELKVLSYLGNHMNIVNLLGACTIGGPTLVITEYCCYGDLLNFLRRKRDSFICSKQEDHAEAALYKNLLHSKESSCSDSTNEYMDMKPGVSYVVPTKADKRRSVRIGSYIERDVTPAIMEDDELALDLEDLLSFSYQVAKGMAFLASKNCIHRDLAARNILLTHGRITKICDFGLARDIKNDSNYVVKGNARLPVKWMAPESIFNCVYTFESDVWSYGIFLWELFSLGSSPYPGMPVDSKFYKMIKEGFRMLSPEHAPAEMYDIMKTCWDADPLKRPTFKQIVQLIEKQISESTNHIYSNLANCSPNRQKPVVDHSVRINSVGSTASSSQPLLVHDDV

Columns and labels:
VEGFR-2 = VEGFR-2 (Homo sapiens, UniProt P35968); settings: in vitro; cited from earlier work
Kit = Kit (Homo sapiens, UniProt P10721); settings: in vitro; cited from earlier work

Cc1ccc(Nc2nccc(N(C)c3ccc4c(C)n(C)nc4c3)n2)cc1S(N)(=O)=O.Cl [pazopanib]
ligand-induced autophosphorylation of VEGFR-2 (VEGFR-2): inhibited
ligand-induced autophosphorylation of Kit (Kit): inhibited
